Measurements as given in US7419999B2, “Gamma lactams as prostaglandin agonists and use thereof” (Applied Research Systems ARS Holding N.V., priority 2002, dated 2008).

Test system: mature 10-week CD-1 mice
Experiment: In vivo ovulation assay (mature mouse ovulation induction model)
Conditions: Group 2: 0.12 mg/kg i.p., 5IU PMSG priming
Protocol: Ovulation triggering activity of compounds of the invention are tested in a mature mouse ovulation induction model.
Mature 10-week-old CD-mice are used. Reagents are prepared as follows: PMSG (pregnant mare serum gonadotropin) (Calbiochem, cat #367222) and hCG (Serono) are diluted in PBS. PGE2 (Cayman, Ann Arbor Mich.) is dissolved in ethanol and diluted with 0.154 M NaHCO2 Buffer (pH 8.0) to final concentration of ethanol of less than 3 percent. A test compound (based on solubility) is pre-dissolved in ethanol, DMSO or other reagents. Test compound is then diluted with saline or other diluents such as PBS or NP3S (5% N-methyl-pyrrolidinone/30% PEG-400/25% PEG-200/20% Propylene Glycol in saline). PMSG serves to stimulate follicule growth and maturation. […]
The following test protocol was employed for the test animals (typically 5 animals per test group). • Day 1: Inject 5 IU PMSG in 200 µL PBS (i.p. 15:00 PM) • Day 2: No administration • Day 3: Inject an ovulation triggering dose of hCG (i.p.) or hCG replacement (PGE2 or compound of the invention, s.c., i.v. or oral route), 15:00 PM • Day 4: Eighteen hours after injections of ovulation triggers, animals were sacrificed by CO2 asphyxiation and abdominal cavities were opened using fine scissors and forceps. […] The numbers of ovulated ova in the oviducts were counted using upright microscope with 4× objective and recorded. […]

Substance: HCG: human Chorionic Gonadotropin (Serono), ovulation triggering dose
- average of ova obtained: An average of 27.2 ova were obtained with Group 2;
